Experimental data from PMC10065276, “Enhanced therapeutic window for antimicrobial Pept-ins by investigating their structure-activity relationship” (PLOS ONE, 2023).
In brackets after ≈: the same amount, converted by molar mass.

Experiments:
[1] = tested on: HEK 293T cells; assay: CellTiter Blue assay; format: cell-based, human; details: about 16 hours treatment, viability normalised to vehicle
Procedure: HEK 293T cells (ATCC CRL-3216) were grown in DMEM medium, supplemented with 10% FBS, 1 mM sodium pyruvate, non-essential amino acids. 100 μL of 10 000 cells were grown in flat-bottom 96-well plates (Fischer Scientific) overnight until cells are attached to the plate. Peptides were dissolved with Mini-plasco Nacl 0.9% (B. Braun) to 2 mg/mL and diluted to indicated concentrations using cell culture medium. Cells were treated by adding 100 μL peptides to each well for about 16 hours. Cells lysed with 1% Triton X-100 was included as a positive control. The toxicity of the peptide treatments was evaluated using the CellTiter-Blue Cell Viability Assay according to the instructions of the manufacturer (Promega, USA). The metabolic activity of viable cells is measured by recording fluorescence intensity at 590 nm after excitation at 560 nm. Cell viability is determined by normalising the fluorescence intensity of peptide- or triton-treated cells to the vehicle-treated sample.

[2] = tested on: A. baumannii clinical isolates; format: cell-based, Acinetobacter baumannii; details: S12 Table; each table row is one A. baumannii clinical isolate (12 isolates)
Description: To address the emerging antibiotic resistance issue, it is not only required to develop active antibiotics against wildtype bacteria, but also against the clinically isolated multidrug-resistant strains. Therefore, we determined whether P2 variants with a 4-fold lower MICs (P2_A5F, V7Y (P2), P2_H12_GV, P2_H12_PEG) (S12 Table) will also show improved antimicrobial activity against these multidrug-resistant strains. Since a high net positive charge could carry inherent developability challenges, we further explored the therapeutic potential of P2 variants with reduced net charge (P2_4R_GV and P2_4R_L) (S12 Table) by determining their antimicrobial activity against these clinically isolated multidrug-resistant strains. […]
The peptide MIC was determined via the broth microdilution assay according to the EUCAST guideline, using 96-well polystyrene flat-bottom microtiter plates (BD Biosciences). […] The MIC was determined as the lowest peptide concentration without visible bacterial growth.

CC(C)C[C@H](NC(=O)CNC(=O)[C@H](CCCNC(=N)N)NC(=O)[C@@H]1CSSC[C@H](NC(=O)[C@@H](NC(=O)[C@H](CC(C)C)NC(=O)[C@H](C)NC(=O)[C@H](CC(C)C)NC(=O)CNC(=O)[C@H](CC(C)C)NC(=O)CNC(=O)[C@@H](N)CCCNC(=N)N)C(C)C)C(=O)N[C@@H](CCCNC(=N)N)C(=O)N[C@@H](CCCNC(=N)N)C(=O)NCCOCCOCC(=O)N1)C(=O)NCC(=O)N[C@@H](CC(C)C)C(=O)N[C@@H](C)C(=O)N[C@@H](CC(C)C)C(=O)N[C@H](C(=O)N[C@@H](CCCNC(=N)N)C(=O)N[C@@H](CCCNC(=N)N)C(=O)O)C(C)C [Peptide P2_H12_PEG]
toxicity on HEK 293T cells [1]: induced toxicity effects | MIC [2]: 8 µg/mL (≈ 3.13 µM)
